Among the data in ChEMBL document CHEMBL3784928, “Development and Characterization of Novel and Selective Inhibitors of Cytochrome P450 CYP26A1, the Human Liver Retinoic Acid Hydroxylase” (J Med Chem, 2016) are Ratio IC50 and Activity values, retold here.

The source made the active and inactive calls. The rule behind the calls is not given here.

The species named for one test is Homo sapiens. The test is described as follows: Selectivity ratio of IC50 for microsomal fraction of human CYP26B1 to IC50 for microsomal fraction of human CYP26A1.
A short description of test [1]: Activation of human RARbeta at 1 uM by luciferase reporter gene assay. A general note: A reporter such as luciferase makes a cellular process visible.

As for `CC1(C)CCC(C)(C)c2cc(C3(c4ccc5cc(C(=O)O)ccc5c4)SCCS3)ccc21`, the Ratio IC50 in the test filed under Homo sapiens came to 17.
As for `CC1(C)CCC(C)(C)c2cc(C3(c4ccc(/C=C/C(=O)O)cc4)OCCO3)ccc21`, the outcome in test [1] was inactive.
